In PubChem BioAssay AID893 (National Center for Advancing Translational Sciences (NCATS), 2007):
The list shows a part of the results, in another mix than the full data. Some of these compounds have results that are not shown, active ones among them. Results filed as inconclusive are left out. Calls of active or inactive are those of the source. Calls come from the whole dose curve; as a rule, active = well fitted inhibition curve with a large enough effect; inconclusive = small, poorly fitted or top-dose-only effect; inactive = no such curve, though single readings can be large or run the other way.

target: 3-hydroxyacyl-CoA dehydrogenase type-2 (Homo sapiens) (UniProt Q99714); test: qHTS Assay for Inhibitors of HSD17B4, hydroxysteroid (17-beta) dehydrogenase 4; conditions: recombinant HSD17B10, NADH fluorescence kinetic; at 11.4 µM (top of the series) unless noted;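 note: the protocol describes HADH2 (HSD17B10) and not the HSD17B4 of the title; nearly all actives have a fitted effect of over 70% in size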
% is set by controls: 0 for no effect and ±100 for the full control effect.

Row | SMILES | activity change, negative = inhibition
1 | CN(C)c1cccc(C(=O)NCC2(N(C)C)CCCCC2)c1 | inactive: -7.27% [at 57.1 µM]
2 | C=C(C)C#C[C@@](O)(C(=O)OC1CCN(C)CC1)c1ccccc1 | inactive: 7.02%
3 | CN1CCC[C@H](OC(=O)[C@](O)(c2ccccc2)C2CCCC2)C1 | inactive: 12.4%
4 | CN1CC[C@H](OC(=O)[C@](O)(c2ccccc2)C2CCCC2)C1 | inactive: 4.96%
5 | O=C(OC1CN2CCC1CC2)C(CO)(c1ccccc1)c1ccccc1 (stereo not given) | inactive: 5.61% [at 57.1 µM]
